In one experiment the target is Carbonic anhydrase 1 (Homo sapiens, UniProt P00915). Put plainly: Inhibitory constant against human isozyme carbonic anhydrase I for the CO2 hydration reaction at 20 degree C.
The next experiment addresses Carbonic anhydrase 4 (Homo sapiens, UniProt P22748). Put plainly: Inhibitory constant against human isozymes carbonic anhydrase IV for the CO2 hydration reaction at 20 degree C.
In a further experiment the target is Carbonic anhydrase 9 (Homo sapiens, UniProt Q16790). Put plainly: Inhibitory constant against human isozymes carbonic anhydrase IX for the CO2 hydration reaction at 20 C.

Chains of the proteins cited; added tags and fusions are not shown. Lines headed by an entry give the natural chain unless they say otherwise; changes in a name come on top.
UniProt P00915: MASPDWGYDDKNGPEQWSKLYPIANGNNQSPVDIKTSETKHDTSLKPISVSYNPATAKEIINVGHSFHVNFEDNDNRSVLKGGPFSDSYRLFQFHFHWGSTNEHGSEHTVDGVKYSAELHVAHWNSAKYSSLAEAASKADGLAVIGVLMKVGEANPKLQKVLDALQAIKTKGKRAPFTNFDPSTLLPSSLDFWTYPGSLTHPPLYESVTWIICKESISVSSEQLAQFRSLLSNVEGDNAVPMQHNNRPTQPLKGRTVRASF
UniProt P22748: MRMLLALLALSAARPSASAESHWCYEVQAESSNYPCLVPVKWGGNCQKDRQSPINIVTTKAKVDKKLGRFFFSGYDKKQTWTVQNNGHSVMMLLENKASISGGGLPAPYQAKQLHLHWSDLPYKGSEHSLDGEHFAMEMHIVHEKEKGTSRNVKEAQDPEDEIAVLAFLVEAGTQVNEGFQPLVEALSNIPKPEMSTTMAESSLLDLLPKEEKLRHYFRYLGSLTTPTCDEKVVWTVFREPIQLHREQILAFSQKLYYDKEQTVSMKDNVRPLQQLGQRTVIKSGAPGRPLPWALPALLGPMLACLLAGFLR

As a reminder, the Ki is a dissociation constant, usually derived from enzyme kinetics or from competition with a known ligand. A lower Ki goes with a stronger hold on the target.

As for [Cu(CN)2]-, the Ki on Carbonic anhydrase 1 is 6.9 µM; on Carbonic anhydrase 4, 9.8 µM. As for [Au(CN)2], on Carbonic anhydrase 1, the inhibition constant (Ki) stood at 7.7 µM. At Carbonic anhydrase 9, [NbF7]2 showed an inhibitory constant (Ki) of 100 µM.
